Literature values in patent US12122816B2, “Long acting peptide tyrosine tyrosine (PYY) analogs and methods of use” (Intarcia Therapeutics, Inc., priority 2020, dated 2024).

Conditions: in humans; cited from earlier work

In the case of CC[C@H](C)[C@H](NC(=O)[C@@H]1CCCN1C(=O)CNC(=O)[C@H](Cc1ccccc1)NC(=O)[C@H](CC(N)=O)NC(=O)[C@H](CC(N)=O)NC(=O)[C@H](CO)NC(=O)[C@H](CO)NC(=O)[C@H](Cc1c[nH]cn1)NC(=O)[C@@H](NC(=O)[C@H](CC(C)C)NC(=O)[C@H](Cc1ccccc1)NC(=O)[C@H](CC(N)=O)NC(=O)[C@H](C)NC(=O)[C@H](CC(C)C)NC(=O)[C@H](CCCNC(=N)N)NC(=O)[C@H](CCC(N)=O)NC(=O)[C@@H](NC(=O)[C@H](C)NC(=O)[C@@H]1CSSC[C@H](NC(=O)[C@@H](N)CCCCN)C(=O)N[C@@H](CC(N)=O)C(=O)N[C@@H]([C@@H](C)O)C(=O)N[C@@H](C)C(=O)N[C@@H]([C@@H](C)O)C(=O)N1)[C@@H](C)O)C(C)C)C(=O)N[C@@H](CC(C)C)C(=O)N1CCC[C@H]1C(=O)N1CCC[C@H]1C(=O)N[C@H](C(=O)N[C@@H](CC(N)=O)C(=O)N[C@H](C(=O)NCC(=O)N[C@@H](CO)C(=O)N[C@@H](CC(N)=O)C(=O)N[C@H](C(=O)N[C@@H](Cc1ccc(O)cc1)C(N)=O)[C@@H](C)O)C(C)C)[C@@H](C)O [pramlintide], the half-life is listed as “approximately 48 minutes”.
